Data taken from patent US7235366B1 (priority 1993, dated 2007).

The chains behind the UniProt entries cited, without tags or fusion partners. Where a name states a change or a piece, a line headed by the entry shows the natural chain unless it says otherwise.
UniProt P32300, whole entry D128N: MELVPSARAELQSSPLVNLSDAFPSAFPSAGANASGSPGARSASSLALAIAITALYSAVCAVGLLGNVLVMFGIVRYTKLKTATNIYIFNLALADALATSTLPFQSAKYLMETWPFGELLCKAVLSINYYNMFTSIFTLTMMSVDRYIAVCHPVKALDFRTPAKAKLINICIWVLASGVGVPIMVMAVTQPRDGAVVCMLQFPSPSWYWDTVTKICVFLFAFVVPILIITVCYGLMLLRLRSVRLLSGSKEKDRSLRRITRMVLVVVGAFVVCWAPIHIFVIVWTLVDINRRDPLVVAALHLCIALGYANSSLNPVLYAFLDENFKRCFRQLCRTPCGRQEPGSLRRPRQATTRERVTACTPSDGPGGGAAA
UniProt P32300, whole entry H278N: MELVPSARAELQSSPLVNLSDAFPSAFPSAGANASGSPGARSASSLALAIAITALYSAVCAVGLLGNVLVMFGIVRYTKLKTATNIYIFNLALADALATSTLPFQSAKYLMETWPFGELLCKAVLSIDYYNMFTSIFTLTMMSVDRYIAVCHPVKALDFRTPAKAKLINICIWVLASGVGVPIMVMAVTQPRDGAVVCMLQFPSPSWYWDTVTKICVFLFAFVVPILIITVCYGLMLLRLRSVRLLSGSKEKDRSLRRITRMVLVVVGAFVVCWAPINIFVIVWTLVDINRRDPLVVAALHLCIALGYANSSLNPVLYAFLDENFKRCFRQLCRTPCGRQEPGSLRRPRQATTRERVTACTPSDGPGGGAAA
UniProt P32300, whole entry: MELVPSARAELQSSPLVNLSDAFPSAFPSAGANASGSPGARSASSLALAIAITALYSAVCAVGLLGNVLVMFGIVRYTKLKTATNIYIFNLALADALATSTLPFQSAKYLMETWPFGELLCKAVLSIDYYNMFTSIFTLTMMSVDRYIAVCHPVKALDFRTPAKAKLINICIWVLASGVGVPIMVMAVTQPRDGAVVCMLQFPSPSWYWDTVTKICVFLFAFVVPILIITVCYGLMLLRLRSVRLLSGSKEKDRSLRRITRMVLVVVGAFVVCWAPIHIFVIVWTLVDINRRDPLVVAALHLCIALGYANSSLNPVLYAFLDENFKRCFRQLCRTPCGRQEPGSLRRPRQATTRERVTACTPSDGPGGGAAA
UniProt P33534: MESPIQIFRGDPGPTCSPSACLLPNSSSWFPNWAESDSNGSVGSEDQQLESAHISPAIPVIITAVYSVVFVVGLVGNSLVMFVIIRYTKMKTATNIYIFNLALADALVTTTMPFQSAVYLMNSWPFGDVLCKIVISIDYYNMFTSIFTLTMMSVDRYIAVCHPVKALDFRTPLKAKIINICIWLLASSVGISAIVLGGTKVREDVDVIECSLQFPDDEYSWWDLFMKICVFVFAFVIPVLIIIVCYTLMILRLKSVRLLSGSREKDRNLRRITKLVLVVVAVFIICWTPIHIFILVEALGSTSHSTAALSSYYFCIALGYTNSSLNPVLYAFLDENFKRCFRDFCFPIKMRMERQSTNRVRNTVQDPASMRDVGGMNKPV
UniProt P33535, whole entry: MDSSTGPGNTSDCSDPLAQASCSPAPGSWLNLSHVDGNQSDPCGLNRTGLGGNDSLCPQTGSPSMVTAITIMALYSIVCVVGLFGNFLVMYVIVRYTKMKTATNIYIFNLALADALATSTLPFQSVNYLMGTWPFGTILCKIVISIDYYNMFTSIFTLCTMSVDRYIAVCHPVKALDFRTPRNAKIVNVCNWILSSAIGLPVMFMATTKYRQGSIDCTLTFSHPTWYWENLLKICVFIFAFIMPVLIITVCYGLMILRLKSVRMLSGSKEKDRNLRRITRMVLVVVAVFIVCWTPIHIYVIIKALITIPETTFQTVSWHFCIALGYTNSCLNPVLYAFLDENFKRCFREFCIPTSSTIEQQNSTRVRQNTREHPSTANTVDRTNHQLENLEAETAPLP
UniProt P35372, whole entry: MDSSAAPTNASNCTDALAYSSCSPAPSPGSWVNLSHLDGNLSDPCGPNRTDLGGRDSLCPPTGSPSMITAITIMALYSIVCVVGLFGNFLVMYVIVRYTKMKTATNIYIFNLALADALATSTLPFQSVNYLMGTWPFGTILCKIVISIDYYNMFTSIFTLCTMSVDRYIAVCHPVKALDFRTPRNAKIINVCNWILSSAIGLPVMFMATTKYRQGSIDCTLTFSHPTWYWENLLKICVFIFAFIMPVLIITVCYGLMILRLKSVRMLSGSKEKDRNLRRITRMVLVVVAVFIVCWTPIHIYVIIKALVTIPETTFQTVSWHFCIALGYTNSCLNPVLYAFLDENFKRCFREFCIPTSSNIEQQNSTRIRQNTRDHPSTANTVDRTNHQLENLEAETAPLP

What was measured:
[1] = target: T1, D128N mutant mouse delta opioid receptor (Mus musculus, UniProt P32300, D128N); format: binding; details: read-out: Potencies of Agonists to Bind, D128N mutant (Ki values in nM)
T1 construct: expressed in transfected cells; host or cells: COS-7 (transient, pCMV6c)

[2] = target: T2, H278N mutant mouse delta opioid receptor (Mus musculus, UniProt P32300, H278N); format: binding; details: read-out: Potencies of Agonists to Bind, H278N mutant (Ki values in nM)
T2 construct: expressed in transfected cells; host or cells: COS-7 (transient, pCMV6c)

cloned mouse κ receptor = cloned mouse κ receptor (Mus musculus, UniProt P33534); details: read-out: Binding potencies (Ki-nM) κ RECEPTOR [^3H] U-69, 593
cloned mouse δ receptor = cloned mouse δ receptor (Mus musculus, UniProt P32300); details: read-out: Binding potencies (Ki-nM) δ RECEPTOR [^3H] naltrindole
cloned rat μ receptor = cloned rat μ receptor (Rattus norvegicus, UniProt P33535); details: read-out: Binding potencies (Ki-nM) μ RECEPTOR [^3H] DAMGO
[3] = target: T3, wild-type mouse delta opioid receptor (Mus musculus, UniProt P32300); format: binding; details: read-out: Potencies of Agonists to Bind, Wild-type (Ki values in nM)
T3 construct: expressed in transfected cells; host or cells: COS-7 (transient, pCMV6c)

[4] = target: T4, cloned human μ opioid receptor (Homo sapiens, UniProt P35372); details: read-out: Binding potencies (Ki-nM) for the cloned human μ opioid receptor [^3H] DAMGO
T4 construct: This fragment includes the entire coding region of the human μ opioid receptor; expressed in transfected cells; host or cells: COS-7 (transient, pcDNA3)

[5] = target: T5, cloned rat μ opioid receptor (Rattus norvegicus, UniProt P33535); details: read-out: Binding potencies (Ki-nM) [^3H] DAMGO rat
T5 construct: expressed in transfected cells; host or cells: COS-7 (transient)

Substance	Ki [1] [nM]	Ki [2] [nM]	Ki (cloned mouse κ receptor) [nM]	Ki (cloned mouse δ receptor) [nM]	Ki (cloned rat μ receptor) [nM]	Ki [3] [nM]	Ki [4] [nM]	Ki [5] [nM]
D-Ala^2-deltorphin II	1940	4	> 1000	3.3	> 1000			
Dynorphin A (1–17)				> 1000				
Leu-enkephalin			> 1000					
Met-enkephalin			> 1000	4				
β-Endorphin (human)	15800	8.1		1	1	26	0.94	1.7
